Results reported in PMC8637366 (Slas Discovery, 2021).

Protein sequences, listed by entry. Tags and fused reporters are not part of them. Residues count along the entry.
UniProt P22303, 32-614: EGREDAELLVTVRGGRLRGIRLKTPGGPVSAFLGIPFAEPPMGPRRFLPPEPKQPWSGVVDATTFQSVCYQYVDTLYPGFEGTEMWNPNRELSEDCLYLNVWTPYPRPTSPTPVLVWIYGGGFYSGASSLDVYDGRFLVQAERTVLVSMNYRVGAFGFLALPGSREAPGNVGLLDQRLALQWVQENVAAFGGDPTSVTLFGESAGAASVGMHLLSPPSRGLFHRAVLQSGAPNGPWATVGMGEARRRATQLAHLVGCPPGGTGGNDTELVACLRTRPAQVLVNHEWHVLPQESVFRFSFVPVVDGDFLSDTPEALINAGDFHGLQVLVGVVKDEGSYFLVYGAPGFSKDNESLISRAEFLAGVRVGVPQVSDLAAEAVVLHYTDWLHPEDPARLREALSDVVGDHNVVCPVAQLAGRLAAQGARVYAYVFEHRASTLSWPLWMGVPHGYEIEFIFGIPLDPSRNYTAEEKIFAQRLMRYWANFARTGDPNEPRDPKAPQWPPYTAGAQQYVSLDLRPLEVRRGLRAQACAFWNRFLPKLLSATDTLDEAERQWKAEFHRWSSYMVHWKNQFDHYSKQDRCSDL

Target: recombinant human AChE (Homo sapiens, UniProt P22303)
Experiment: biochemical

CCCCCCCCCCC[C@@H](C[C@@H]1OC(=O)[C@H]1CCCCCC)OC(=O)[C@H](CC(C)C)NC=O [Orlistat]
IC50: 1010 nM
